The values that follow come from the NIST ThermoML archive (doi:10.1016/j.jct.2016.08.007).

Numbers after ± are expanded uncertainties.

For data set [1] the following is noted: Crystal; DTA.
Data set [2] in a line: Molar enthalpy of transition or fusion. The note with it: Crystal; DSC.

As for `CC1=NN(c2ccc(C)cc2)C(=O)C1` [2,4-dihydro-5-methyl-2-(4-methylphenyl)-3H-pyrazol-3-one], in data set [1], the Normal melting temperature was 133.50 ± 1.1 °C. The “Molar enthalpy of transition or fusion” value in data set [2] amounted to 6.34 ± 0.232 kcal/mol.
